This assay relates to K-562-T315I cells (K-562 cells expressing BCR-ABL^T315I). Put plainly: Cell viability / growth inhibition (AlamarBlue), K-562-T315I. It is filed as cell-based. Particulars: Homo sapiens, K562, read-out: Cell Inhibition IC50 K-562-T315I.

In general, IC50 refers to the concentration at which inhibition is half-maximal. With `Cc1nc(Nc2ncc(C(=O)Nc3c(C)cccc3Cl)s2)cc(N2CCN(CCO)CC2)n1` [Dasatinib], the IC50 is more than 10 µM.
